According to patent US6022696A, “Methods of identifying agonists or antagonists of angiotensin IV” (Washington State University Research Foundation, priority 1998, dated 2000):
Starred links: 1 amine or outer side, 2 acyl side, 3 side chain; linkers in the order of their positions; H or OH if unused. Non-standard residues stand in square brackets, D forms with d. Residues, ends and D or L forms follow the SMILES beside them. X1 = CC(C)[C@H](N)CN([C@@H](Cc1ccc(O)cc1)C(=O)[*:2])[*:1]; Nle = CCCC[C@H](N)C(=O)O; GABA = NCCCC(=O)O; Sar = CNCC(=O)O

Key:
AT4 receptor [1] = molecular target: T1, AT4 receptor (Bos taurus, UniProt F1N1Q8); test: 125I-AIV binding and competition, solubilized bovine adrenal cortical receptor; conditions: read-out: Ki, competition of 125I-AIV binding
T1 sequence (F1N1Q8 1-1022): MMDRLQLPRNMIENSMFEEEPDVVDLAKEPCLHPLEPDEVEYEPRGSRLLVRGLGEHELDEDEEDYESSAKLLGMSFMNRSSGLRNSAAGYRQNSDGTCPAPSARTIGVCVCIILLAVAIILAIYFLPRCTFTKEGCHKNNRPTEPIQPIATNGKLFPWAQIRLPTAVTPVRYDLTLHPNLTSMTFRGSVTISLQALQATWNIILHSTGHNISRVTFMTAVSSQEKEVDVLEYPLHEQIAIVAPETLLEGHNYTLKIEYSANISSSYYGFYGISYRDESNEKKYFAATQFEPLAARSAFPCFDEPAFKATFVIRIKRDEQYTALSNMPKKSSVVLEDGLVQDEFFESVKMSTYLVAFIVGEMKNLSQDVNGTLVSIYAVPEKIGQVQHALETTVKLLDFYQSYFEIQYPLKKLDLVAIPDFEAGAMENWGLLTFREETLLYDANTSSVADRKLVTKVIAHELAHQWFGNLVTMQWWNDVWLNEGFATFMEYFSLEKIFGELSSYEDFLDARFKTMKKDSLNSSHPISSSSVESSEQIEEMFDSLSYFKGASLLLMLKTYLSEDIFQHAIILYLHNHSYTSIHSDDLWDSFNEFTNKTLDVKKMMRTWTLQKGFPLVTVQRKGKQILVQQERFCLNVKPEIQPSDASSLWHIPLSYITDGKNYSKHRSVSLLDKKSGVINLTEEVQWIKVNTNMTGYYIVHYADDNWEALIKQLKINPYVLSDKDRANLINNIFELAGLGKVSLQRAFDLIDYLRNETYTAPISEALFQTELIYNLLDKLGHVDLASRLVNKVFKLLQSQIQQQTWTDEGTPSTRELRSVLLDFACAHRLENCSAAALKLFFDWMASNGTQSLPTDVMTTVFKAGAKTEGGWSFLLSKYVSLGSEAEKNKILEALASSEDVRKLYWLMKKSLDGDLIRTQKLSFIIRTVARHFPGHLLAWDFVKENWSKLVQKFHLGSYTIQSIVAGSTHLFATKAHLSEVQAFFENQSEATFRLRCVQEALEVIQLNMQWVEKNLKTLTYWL

AT4 receptor [2] = molecular target: T1, AT4 receptor; test: 125I-AIV binding and competition, bovine adrenal cortical membranes; conditions: read-out: Ki, competition of 125I-AIV binding
AT4 receptor [3] = molecular target: T1, AT4 receptor; test: 125I-AIV binding and competition, bovine coronary venular endothelial cell (CVEC) membranes
AT4 receptor [4] = molecular target: T2, AT4 receptor (Cavia porcellus, UniProt H0VNM7); test: 125I-AIV binding and competition, guinea pig hippocampus membranes; conditions: read-out: Ki, competition of 125I-AIV binding, 0.6 nM 125I-AIV
T2 sequence (H0VNM7 1-1025): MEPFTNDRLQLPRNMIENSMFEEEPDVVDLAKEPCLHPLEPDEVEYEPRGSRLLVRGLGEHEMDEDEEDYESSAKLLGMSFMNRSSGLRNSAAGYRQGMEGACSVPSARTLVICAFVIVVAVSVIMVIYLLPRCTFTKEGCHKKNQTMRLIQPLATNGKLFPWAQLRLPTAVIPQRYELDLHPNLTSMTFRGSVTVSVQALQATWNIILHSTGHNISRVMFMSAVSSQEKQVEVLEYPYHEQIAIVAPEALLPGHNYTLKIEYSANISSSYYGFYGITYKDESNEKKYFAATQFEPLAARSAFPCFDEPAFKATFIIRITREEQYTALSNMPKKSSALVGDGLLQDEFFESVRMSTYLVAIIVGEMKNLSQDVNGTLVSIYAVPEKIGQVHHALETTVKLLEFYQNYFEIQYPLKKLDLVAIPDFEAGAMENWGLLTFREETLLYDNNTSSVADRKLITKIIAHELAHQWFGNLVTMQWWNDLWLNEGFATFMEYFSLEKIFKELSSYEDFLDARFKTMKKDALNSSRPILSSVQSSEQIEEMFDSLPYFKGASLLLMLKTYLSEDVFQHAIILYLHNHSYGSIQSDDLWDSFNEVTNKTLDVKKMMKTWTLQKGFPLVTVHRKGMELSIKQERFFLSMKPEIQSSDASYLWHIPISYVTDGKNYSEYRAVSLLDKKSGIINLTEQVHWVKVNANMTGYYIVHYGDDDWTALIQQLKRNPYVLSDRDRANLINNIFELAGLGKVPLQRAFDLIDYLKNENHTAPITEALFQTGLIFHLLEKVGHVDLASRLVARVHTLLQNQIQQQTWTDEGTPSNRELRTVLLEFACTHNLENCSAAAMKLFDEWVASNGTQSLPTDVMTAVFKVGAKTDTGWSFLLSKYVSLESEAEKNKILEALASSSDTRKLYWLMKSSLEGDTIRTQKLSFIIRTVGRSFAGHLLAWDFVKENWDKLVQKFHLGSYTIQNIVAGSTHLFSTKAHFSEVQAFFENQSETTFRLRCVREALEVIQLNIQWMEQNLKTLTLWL

AT4 receptor [5] = molecular target: T3, AT4 receptor (Oryctolagus cuniculus, UniProt G1SFU4); test: 125I-AIV binding and competition, rabbit heart P2 membranes; conditions: read-out: Ki, competition of 125I-AIV binding; 0.5 nM 125I-AIV, 120 min, 37° C.
T3 sequence (G1SFU4 1-1025): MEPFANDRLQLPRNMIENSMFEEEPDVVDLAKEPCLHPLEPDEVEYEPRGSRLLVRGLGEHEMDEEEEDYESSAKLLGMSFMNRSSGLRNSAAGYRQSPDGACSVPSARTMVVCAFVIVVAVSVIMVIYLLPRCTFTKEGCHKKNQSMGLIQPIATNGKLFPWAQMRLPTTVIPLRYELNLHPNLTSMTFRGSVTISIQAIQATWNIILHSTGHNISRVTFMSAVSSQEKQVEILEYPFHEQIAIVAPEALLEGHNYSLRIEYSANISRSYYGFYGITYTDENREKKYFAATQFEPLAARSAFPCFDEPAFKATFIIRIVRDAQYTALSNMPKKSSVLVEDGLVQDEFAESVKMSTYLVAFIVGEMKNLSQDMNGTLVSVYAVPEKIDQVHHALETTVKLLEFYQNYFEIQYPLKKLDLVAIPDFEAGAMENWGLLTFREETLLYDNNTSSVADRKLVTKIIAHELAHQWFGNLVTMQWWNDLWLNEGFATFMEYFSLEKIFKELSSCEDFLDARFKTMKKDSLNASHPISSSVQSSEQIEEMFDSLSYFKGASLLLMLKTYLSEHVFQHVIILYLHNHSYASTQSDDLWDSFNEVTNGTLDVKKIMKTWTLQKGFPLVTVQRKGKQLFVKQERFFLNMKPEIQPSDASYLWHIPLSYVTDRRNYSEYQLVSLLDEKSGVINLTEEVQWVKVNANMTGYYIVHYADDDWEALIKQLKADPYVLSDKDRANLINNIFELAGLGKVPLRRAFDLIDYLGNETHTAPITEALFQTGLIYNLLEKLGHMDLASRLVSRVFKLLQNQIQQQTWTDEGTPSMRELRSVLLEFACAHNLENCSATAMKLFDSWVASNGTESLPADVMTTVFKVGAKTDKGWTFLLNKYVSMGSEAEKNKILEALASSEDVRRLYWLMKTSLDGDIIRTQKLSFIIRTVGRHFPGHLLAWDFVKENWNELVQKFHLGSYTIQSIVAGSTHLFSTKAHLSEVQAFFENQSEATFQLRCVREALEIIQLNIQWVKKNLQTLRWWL

[6] = solubilized bovine adrenal cortical receptor
[7] = read-out: Ki, competition of 125I-AIV binding, 0.5 nM 125I-AIV
[8] = bovine adrenal cortical membranes

Compound: CC[C@H](C)[C@H](NC(=O)[C@H](Cc1ccc(O)cc1)NC(=O)[C@@H](NC(=O)[C@H](CCCNC(=N)N)NC(=O)CNC)C(C)C)C(=O)N[C@@H](Cc1cnc[nH]1)C(=O)N1CCC[C@H]1C(=O)N[C@@H](Cc1ccccc1)C(=O)O [Sar1-AII]
- Ki (AT4 receptor [1]; [6]): 280 nM

Compound: CC[C@H](C)[C@H](NC(=O)[C@H](Cc1ccc(O)cc1)NC(=O)[C@@H](N)C(C)C)C(=O)N[C@@H](Cc1c[nH]cn1)C(=O)N1CCC[C@H]1C(=O)N[C@@H](Cc1ccccc1)C(=O)N[C@@H](Cc1c[nH]cn1)C(=O)N[C@@H](CC(C)C)C(=O)O [AI(3-10)] (H-VYIHPFHL-OH)
- Ki (AT4 receptor [1]; [6]): 0.963 nM

Compound: CCCC[C@H](N)C(=O)N[C@@H](Cc1ccccc1)C(=O)N[C@H](C(=O)O)[C@@H](C)CC [Nle-F-I] (H-[Nle]-Phe-Ile-OH)
- Ki (AT4 receptor [1]; [6]): 51.7 nM

Compound: CC(C)[C@H](N)CN[C@@H](Cc1ccc(O)cc1)C(=O)N[C@H](CN[C@@H](Cc1c[nH]cn1)C(=O)N1CCC[C@H]1C(=O)N[C@@H](Cc1ccccc1)C(=O)O)C(C)C [Val1 Val3 AIV, ^+ H3 N-Val(CH2 NH)Tyr-Val(CH2 NH)-His-Pro-Phe-COO--]
- Ki (AT4 receptor [1]; [6]): 1.29 nM

Compound: CC[C@H](C)[C@H](NC(=O)[C@H](Cc1ccc(O)cc1)NC(=O)[C@@H](N)C(C)C)C(=O)N[C@@H](Cc1cnc[nH]1)C(=O)O [VYIH] (H-VYIH-OH)
- Ki (AT4 receptor [2]; bovine adrenal cortical AT4 receptor): > 500 nM

Compound: CCCC[C@H](N)C(=O)N[C@@H](Cc1ccc(O)cc1)C(=O)N[C@H](C(=O)O)[C@@H](C)CC [Nle-Y-I] (H-[Nle]-Tyr-Ile-OH)
- Ki (AT4 receptor [1]): 8.3 nM

Compound: CCCC[C@H](N)C(=O)N[C@@H](Cc1ccc(O)cc1)C(=O)N[C@H](C(=O)NCC(=O)O)[C@@H](C)CC [Nle-Y-I-G] (H-[Nle]YIG-OH)
- Ki (AT4 receptor [1]; [6]): 8.75 nM

Compound: CC[C@H](C)[C@H](NC(=O)[C@H](Cc1ccc(O)cc1)NC(=O)[C@@H](NC(=O)CNC)C(C)C)C(=O)N[C@@H](Cc1c[nH]cn1)C(=O)N1CCC[C@H]1C(=O)N[C@@H](Cc1ccccc1)C(=O)O [Sar1-AIII] (H-[Sar]VYIHPF-OH)
- Ki (AT4 receptor [1]; [6]): 82.5 nM

Compound: CC[C@H](C)[C@H](NC(=O)[C@H](Cc1ccc(O)cc1)NC(=O)[C@@H](NC(=O)[C@H](CCCNC(=N)N)NC(=O)[C@@H](N)CC(=O)O)C(C)C)C(=O)N[C@@H](Cc1cnc[nH]1)C(=O)N1CCC[C@H]1C(=O)N[C@@H](Cc1ccccc1)C(=O)O [AII, Asp1 Arg2 Val3 Tyr4 Ile5 His6 Pro7 Phe8, reference compound]
- Ki (AT4 receptor [3]; [7]): 194 ± 44.5 nM
- Ki (AT4 receptor [2]; [8]): > 1000 nM
- Ki (AT4 receptor [1]; [6]): > 1000 nM

Compound: CC[C@H](C)[C@H](NC(=O)[C@H](Cc1ccc(O)cc1)NC(=O)[C@@H](NC(=O)[C@H](CCCNC(=N)N)NC(=O)[C@@H](N)CC(=O)O)C(C)C)C(=O)N[C@@H](Cc1c[nH]cn1)C(=O)N1CCC[C@H]1C(=O)O [des Phe8-AII]
- Ki (AT4 receptor [1]; [6]): > 1000 nM

Compound: CC[C@H](C)[C@H](NC(=O)[C@H](Cc1ccc(O)cc1)NC(=O)[C@@H](NC(=O)CCCN)C(C)C)C(=O)N[C@@H](Cc1c[nH]cn1)C(=O)N1CCC[C@H]1C(=O)N[C@@H](Cc1ccccc1)C(=O)O [GABA-Nterm-AIV] (H-[GABA]VYIHPF-OH)
- Ki (AT4 receptor [1]; [6]): > 1000 nM

Compound: CC[C@H](C)[C@H](NC(=O)[C@@H]1CCCN1C(=O)[C@H](Cc1c[nH]cn1)NC(=O)[C@@H](NC(=O)[C@H](Cc1ccc(O)cc1)NC(=O)[C@@H](NC(=O)[C@H](CCCN=C(N)N)NC(=O)CNC)C(C)C)[C@@H](C)CC)C(=O)O [Sar1,Ile8-AII]
- Ki (AT4 receptor [3]; [7]): 261 ± 89.1 nM
- Ki (AT4 receptor [2]; [8]): > 1000 nM
- Ki (AT4 receptor [1]; [6]): > 1000 nM

Compound: CC(C)[C@H](N)C(=O)N[C@@H](Cc1ccc(O)cc1)C(=O)N[C@H](CN[C@@H](Cc1c[nH]cn1)C(=O)N1CCC[C@H]1C(=O)N[C@@H](Cc1ccccc1)C(=O)O)C(C)C [Val3 AIV]
- Ki (AT4 receptor [1]; [6]): 10.1 nM

Compound: CC[C@H](C)[C@H](NC(=O)[C@H](Cc1ccc(O)cc1)NC(=O)[C@@H](N)CCCCN)C(=O)O [KYI] (H-Lys-Tyr-Ile-OH)
- Ki (AT4 receptor [1]; [6]): 30 nM

Compound: CC[C@H](C)[C@H](NC(=O)[C@H](Cc1ccc(O)cc1)NC(=O)[C@@H](N)C(C)C)C(=O)N[C@@H](Cc1cnc[nH]1)C(=O)N1CCC[C@H]1C(=O)O [des Phe6-AIV] (H-VYIHP-OH)
- Ki (AT4 receptor [3]; [7]): 7.3 ± 1.2 nM
- Ki (AT4 receptor [1]; [6]): 74.5 nM

Compound: CGP42112A
- Ki (AT4 receptor [3]; read-out: Ki, competition of 125I-AIV binding, unit inferred): > 100000 nM
- Ki (AT4 receptor [4]): > 100000 nM
- Ki (AT4 receptor [5]): > 1000 nM
- Ki (AT4 receptor [2]; [8]): > 100000 nM
- Ki (AT4 receptor [1]; [6]): > 100000 nM

Compound: CC[C@H](C)[C@H](NC(=O)[C@H](Cc1ccc(O)cc1)NC[C@@H](N)C(C)C)C(=O)N[C@@H](Cc1c[nH]cn1)C(=O)N1CCC[C@H]1C(=O)N[C@@H](Cc1ccccc1)C(=O)O [Val1 AIV] (H-[X1]IHPF-OH)
- Ki (AT4 receptor [1]; [6]): 16.9 nM

Compound: CCCC[C@H](N)C(=O)N[C@@H](Cc1ccc(O)cc1)C(=O)N[C@H](C(N)=O)[C@@H](C)CC [Nle-Y-I amide] (H-[Nle]-Tyr-Ile-NH2)
- Ki (AT4 receptor [1]): 2.06 nM
